Results taken from patent US12662501B2, “Transcriptome In Vivo Analysis (TIVA) and Transcriptome In Situ Analysis (TISA)” (The Trustees of the University of Pennsylvania, priority 2014, dated 2026).
Like-named read-outs stand apart in the source and are kept apart here.

Legend:
[1] = test system: 1-cell-stage zebrafish embryos; conditions: +/−hv, observed at 24 and 48 hours

## [Ru(bpy)2(3-ethynyl-pyridine)2](PF6)2 [RuBEP]
1-P, in air
  quantum yield Φ of photodissociation of one 3-EP ligand: 0.33
1P, 445 nm
  ε: 6700 M⁻¹ cm⁻¹
1P, 450 nm
  ε: 6700 M⁻¹ cm⁻¹
1P, 450 nm, in air
  εΦ: 2140
[1]
  toxicity in zebrafish embryos: non-toxic
25mer RNA
  damage to 25mer RNA: no damage
